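Following 48 hours of exposure in 96-well plates, responses at five concentrations were used to interpolate endpoints linearly. TGI: total growth inhibition.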
Tested on: MOLT-4 leukemia
Assay: growth of human tumour cells (NCI), 48 h

**Q.** `O=[N+]([O-])C1([N+](=O)[O-])CCCc2nonc21` was tested. Which TGI did it give?
**A.** 88.4 µM
